Source: patent publication US9718790B2, “Triazine derivative and pharmaceutical composition having an analgesic activity comprising the same” (SHIONOGI & CO., LTD., priority 2010, dated 2017)
Like-named read-outs stand apart in the source and are kept apart here.

Protein sequences, listed by entry. Tags and fused reporters are not part of them. Lines headed by an entry give the natural chain unless they say otherwise; changes in a name come on top.
UniProt P56373: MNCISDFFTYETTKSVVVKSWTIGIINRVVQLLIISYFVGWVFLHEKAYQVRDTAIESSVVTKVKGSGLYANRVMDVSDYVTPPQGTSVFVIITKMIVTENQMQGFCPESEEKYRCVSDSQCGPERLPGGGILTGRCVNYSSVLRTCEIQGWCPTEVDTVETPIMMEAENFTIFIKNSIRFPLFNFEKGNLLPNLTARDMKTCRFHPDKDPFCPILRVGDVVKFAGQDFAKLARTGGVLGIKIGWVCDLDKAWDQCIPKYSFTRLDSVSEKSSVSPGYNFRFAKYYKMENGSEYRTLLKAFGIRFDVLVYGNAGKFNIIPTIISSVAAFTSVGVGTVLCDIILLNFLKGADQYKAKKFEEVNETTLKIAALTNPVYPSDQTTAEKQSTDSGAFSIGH

Molecular target: human P2X3 receptor (Homo sapiens (Human), UniProt P56373)
Assay: Evaluation of human P2X3 receptor inhibitory activity (Fluo-3 calcium fluorescence, FDSS 3000, ATP stimulation);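 also: stimulus was 50 nM ATP with fluorescence followed for 3 min, and the response per well was peak post-ATP fluorescence divided by the reading at measurement start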
Type: cell-based
[1] = C6BU-1 cells stably expressing human P2X3 receptor

Structure (SMILES)	IC50 [1]	IC50
Cc1ccc(Cn2c(=O)n(C[C@H](C)C(=O)O)c(=O)[nH]/c2=N\c2ccc(Oc3ccc(C)nc3)cc2)cc1 [Compound I-1232]	5 nM	–
COC(=O)[C@@H](C)Cn1c(=O)[nH]/c(=N\c2ccc(Oc3ccc(C)nc3)cc2)n(Cc2ccc(C)cc2)c1=O [Compound I-1209]	6 nM	–
CCn1c(=O)[nH]/c(=N\c2ccc(Oc3cnc(C(=O)O)cn3)cc2)n(Cc2ccc(C)cc2)c1=O [Compound I-2384]	–	5 nM
